## Curated experimental data: water solubility values

From the experimental data distributed with OPERA 2.9.

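The OPERA project collected these measurements from public sources as training and test data for property models. The files give a single number for a compound and property, which may rest on several reports. Method, purity and exact conditions of the single measurements are not given. A value may pool stereoisomers or salt forms, and the file does not say which form was measured. Unmarked limits or estimates from the upstream databases cannot be ruled out.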

Water solubility is log10 of mol/L, nominally at 25 °C; higher is more soluble.

- Clc1ccc2c(Cl)ccnc2c1 [4,7-Dichloroquinoline]: water solubility -3.729 (log10 mol/L)
- CC(=O)CC(=O)OC1CCCCC1 [Acetoacetic acid, cyclohexyl ester]: water solubility -2.904 (log10 mol/L)
- Cc1c2oc3c(C)ccc(C(=O)N[C@@H]4C(=O)N[C@H](C(C)C)C(=O)N5CCC[C@H]5C(=O)N(C)CC(=O)N(C)[C@@H](C(C)C)C(=O)O[C@@H]4C)c3nc-2c(C(=O)N[C@@H]2C(=O)N[C@H](C(C)C)C(=O)N3CCC[C@H]3C(=O)N(C)CC(=O)N(C)[C@@H](C(C)C)C(=O)O[C@@H]2C)c(N)c1=O [Actinomycin D]: water solubility -4.798 (log10 mol/L)
- CCCC(=O)c1ccc2c(c1)N(CCCN1CCN(C)CC1)c1ccccc1S2 [Butaperazine]: water solubility -2.161 (log10 mol/L)
- Fc1cccc(F)c1-c1nnc(-c2ccccc2Cl)nn1 [Diflovidazin]: water solubility -6.12 (log10 mol/L)
- CCOC(=O)/C(=C/c1ccccc1)N=CO [Ethyl 2-formamido phenyl acrylate]: water solubility -2.891 (log10 mol/L)
- COc1cc(OC)c(NC(=O)c2cc3ccccc3c(/N=N/c3cc(C(=O)Nc4ccc(C(N)=O)cc4)ccc3OC)c2O)cc1Cl [C.I. Pigment Red 187]: water solubility -7.866 (log10 mol/L)
- CCC(=O)n1ncc2c(=O)[nH]cnc21 [1-Propionyl-1,5-dihydro-4H-pyrazolo[3,4-d]pyrimidin-4-one]: water solubility -2.807 (log10 mol/L)
- CCOC(=O)CNC(C)=CC(C)=O [N-(1-Methyl-3-oxo-1-butenyl)glycine ethyl ester]: water solubility -0.586 (log10 mol/L)
- O=C(O)c1ccoc1 [3-Furoic acid]: water solubility -0.243 (log10 mol/L)
- O=C(O)[C@@H]1OC(c2ccccc2)O[C@H]1[C@@H]1COC(c2ccccc2)O1 (stereo partly drawn) [2,3:4,5-Di-O-benzylidene-D-arabinoic acid]: water solubility -2.455 (log10 mol/L)
- CCC1(c2ccccc2)NC(=O)N(C)C1=O (centres undefined) [Mephenytoin]: water solubility -2.352 (log10 mol/L)
- C/C(=C(/CC(=O)O)C(=O)O)c1ccccc1 [(2E)-2-(1-Phenylethylidene)butanedioic acid]: water solubility -2.522 (log10 mol/L)
- CC(=O)OCC(COC(C)=O)(COC(C)=O)COC(C)=O [Pentaerythritol tetraacetate]: water solubility -1.57 (log10 mol/L)
- NC(=O)Nc1ccccc1Cl [(2-Chlorophenyl)urea]: water solubility -1.53 (log10 mol/L)
- CCOC(=O)[C@H](CCc1ccccc1)N[C@@H](C)C(=O)N1CCC[C@H]1C(=O)O.O=C(O)/C=C\C(=O)O [Enalapril maleate]: water solubility -4.29 (log10 mol/L)
- OCCC(F)(F)C(F)(F)C(F)(F)C(F)(F)C(F)(F)C(F)(F)F [6:2 Fluorotelomer alcohol]: water solubility -4.32 (log10 mol/L)
- COc1ccccc1NC(=O)c1cc2ccccc2c(N=Nc2ccc(C(N)=O)cc2)c1O [C.I. Pigment Red 266]: water solubility -8.167 (log10 mol/L)
- CCCCCCCCCCCCCCC(=O)O [Pentadecanoic acid]: water solubility -4.309 (log10 mol/L)
- Nc1cccc(S(N)(=O)=O)c1 [Benzenesulfonamide, 3-amino-]: water solubility -1.16 (log10 mol/L)
- CN1CCCCC1 [Piperidine, 1-methyl-]: water solubility 0.23 (log10 mol/L)
- O=C(O)c1cc(=O)c2c(OCC(O)COc3cccc4oc(C(=O)O)cc(=O)c34)cccc2o1 [Cromolyn]: water solubility -4.117 (log10 mol/L)
- CCCC(C(C)=O)C(C)=O [3-Propylpentane-2,4-dione]: water solubility -0.88 (log10 mol/L)
- CCCCCCCCCc1cc2ccccc2c(S(=O)(=O)[O-])c1CCCCCCCCC.CCCCCCCCCc1cc2ccccc2c(S(=O)(=O)[O-])c1CCCCCCCCC.[Zn+2] [Naphthalenesulfonic acid, dinonyl-, zinc salt (2:1)]: water solubility -4.788 (log10 mol/L)
- O=C(O)c1cc([N+](=O)[O-])ccc1O [Benzoic acid, 2-hydroxy-5-nitro-]: water solubility -2.37 (log10 mol/L)
- Clc1ccc(Oc2c(Cl)cc(Cl)cc2Cl)cc1: water solubility -6.83 (log10 mol/L)
- CC(C)(O)C(=O)OCCc1ccccc1 [Isobutyric acid, alpha-hydroxy-, 2-phenylethyl ester]: water solubility -1.62 (log10 mol/L)
- COC(=O)C(C)OC(C)=O (centres undefined) [methyl 2-acetoxypropanoate]: water solubility -0.261 (log10 mol/L)
- CCOC(=O)c1cc([N+](=O)[O-])cc([N+](=O)[O-])c1 [Ethyl 3,5-dinitrobenzoate]: water solubility -3.01 (log10 mol/L)
- CCCCOCOCCCC [Butane, 1,1'-[methylenebis(oxy)]bis-]: water solubility -2.832 (log10 mol/L)
- CCCCNc1ccc(C(=O)OCCOCCOCCOCCOCCOCCOCCOCCOCCOC)cc1 [Benzonatate]: water solubility -5.579 (log10 mol/L)
- CC(CC=O)CC(C)(C)C (centres undefined) [3,5,5-Trimethylhexanal]: water solubility -2.914 (log10 mol/L)
- CC[C@@H](CO)NCCN[C@@H](CC)CO [Ethambutol]: water solubility -1.431 (log10 mol/L)
- N[C@H](CO)[C@H](O)c1ccc([N+](=O)[O-])cc1 [Chloramphenicol D base]: water solubility -1.912 (log10 mol/L)
- Cl.Nc1c2ccccc2nc2ccccc12 [9-Aminoacridine hydrochloride]: water solubility -2.102 (log10 mol/L)
- Nc1c(Oc2ccccc2)c(Oc2ccccc2)c(N)c2c1C(=O)c1ccccc1C2=O: water solubility -8.255 (log10 mol/L)
- NNC(=O)Nc1ccccc1 [4-Phenylsemicarbazide]: water solubility -2.33 (log10 mol/L)
- CC(C)(C)C(C)(C)O [2-Butanol, 2,3,3-trimethyl- (8CI)(9CI)]: water solubility -0.72 (log10 mol/L)
- CN1[C@@H]2CC[C@H]1C[C@@H](OC(=O)C(O)c1ccccc1)C2 (mixture of isomers): water solubility -1.44 (log10 mol/L)
- O=C1C(CCS(=O)c2ccccc2)C(=O)N(c2ccccc2)N1c1ccccc1 (centres undefined) [Sulfinpyrazone]: water solubility -3.098 (log10 mol/L)
- Cn1cnc2c(=O)nc[nH]c21 [9-Methylhypoxanthine]: water solubility -1.796 (log10 mol/L)
- Cc1cc(N(CCO)CCO)ccc1N=Nc1c(Cl)cc([N+](=O)[O-])cc1Cl: water solubility -5.959 (log10 mol/L)
- CC(C)(C)C(=O)Oc1ccc([N+](=O)[O-])cc1 [4-Nitrophenyl trimethylacetate]: water solubility -6.57 (log10 mol/L)
- O=C(O)C(O)c1cccc(O)c1 (centres undefined) [Hydroxy(3-hydroxyphenyl)acetic acid]: water solubility -0.734 (log10 mol/L)
- O=[N+]([O-])c1ccc([O-])cc1.[Na+] [Sodium 4-nitrophenolate]: water solubility -1.06 (log10 mol/L)
- Cc1nc(C)c(C(=O)NN)cc1C(=O)NN [2,6-dimethylpyridine-3,5-dicarbohydrazide]: water solubility -0.395 (log10 mol/L)
- Nc1ccc2c(S(=O)(=O)O)cccc2c1 [6-Aminonaphthalene-1-sulphonic acid]: water solubility -2.83 (log10 mol/L)

3 of these entries, quoted again:

- Clc1ccc2c(Cl)ccnc2c1 [4,7-Dichloroquinoline]: water solubility -3.729 (log10 mol/L)
- COc1cc(OC)c(NC(=O)c2cc3ccccc3c(/N=N/c3cc(C(=O)Nc4ccc(C(N)=O)cc4)ccc3OC)c2O)cc1Cl [C.I. Pigment Red 187]: water solubility -7.866 (log10 mol/L)
- CN1CCCCC1 [Piperidine, 1-methyl-]: water solubility 0.23 (log10 mol/L)